Shown are actives, neighbours in structure and some others; about 1.3% of the full set was active somewhere.
UUG fidelity: modulators of start codon recognition fidelity in yeast. S. cerevisiae UUG-firefly luciferase reporter, luminescence/redox ratio. activity score, % at 18.7 µM. 0.13% of 350,000 active. AID 602363;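 active = replicate mean at a twofold rise or more, about +100% in these data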;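 also: firefly luciferase made from a UUG start codon reports start codon fidelity; reporter light over untreated wells divided by growth signal over untreated wells; some hits fall short of that in this replicate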
GSIS activator: primary screen for activators of insulin secretion dependent on glucose, INS-1E cells, GLuc reporter luminescence | INS-1E GLuc reporter insulin secretion, 2-3 h | activation, % at 16.6 µM | hit rate 0.61% among 370,000;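 active = lowest replicate activation of at least 40%, so every replicate reaches that level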;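 note: 0% = median of neutral control wells and 100% = median of IBMX positive control wells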
SR-BI uptake up: SR-BI HDL lipid transfer activation; hit rate 0.096% among 320,000; activation, % at 12.5 µM; CHO ldlA[mSR-BI] cells, DiI-HDL uptake fluorescence, 3 h; 100 = double the neutral-control signal;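 active = mean replicate activation of at least 60% and every replicate at or above 60%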;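 note: 0% = median plate neutral-control signal and 100% = twice that signal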
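system = CHO ldlA[mSR-BI] cells, LDL receptor-null, SR-BI overexpressing | medium = Ham's F12 with 0.5% BSA, HEPES 25 mM, pH 7.4 | probe or stimulus = DiI-HDL 10 µg/mL | compound dosing = single-point compound dose | incubation = compound exposure 3 h, 37 °C | technique = DiI fluorescence, bottom read | read-out = cell-associated DiI fluorescence as measure of HDL uptake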
SR-BI HDL uptake: inhibitors of mouse SR-BI mediated HDL lipid uptake | Q61009 | ldlA[mSR-BI] CHO cells, DiI-HDL uptake fluorescence, 3 h | inhibition, % at 12.5 µM | hit rate 0.96% among 320,000 | AID 488896;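 active = mean replicate inhibition of at least 70% and a set share of replicates each scoring 70 or more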;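 note: 0% = median of neutral control wells and 100% = median of positive control wells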
An asterisk follows results filed as active.

The opening 3 entries (preview)
Results for COc1ccc(C(=O)Nc2cccnc2Cl)cc1OC ?
UUG fidelity: 4; GSIS activator: 47*; SR-BI uptake up: -10; SR-BI HDL uptake: 10

How did COc1ccc(C(=O)Nc2cccc3cccnc23)cc1OC do in these assays?
UUG fidelity: -15; GSIS activator: 4; SR-BI uptake up: -79; SR-BI HDL uptake: 79*

What do the screens show for `C[C@@H]1CCCCO[C@H](CN(C)C(=O)Nc2ccc3c(c2)OCO3)[C@H](C)CN([C@@H](C)CO)C(=O)c2cc(NC(=O)Nc3ccccc3)ccc2O1`?
UUG fidelity: 2; GSIS activator: 10

The listing, previewed entries included:
Results for COc1ccc(C(=O)Nc2cccnc2Cl)cc1OC ?
UUG fidelity: 4; GSIS activator: 47*; SR-BI uptake up: -10; SR-BI HDL uptake: 10

How did COc1ccc(C(=O)Nc2cccc3cccnc23)cc1OC do in these assays?
UUG fidelity: -15; GSIS activator: 4; SR-BI uptake up: -79; SR-BI HDL uptake: 79*

What do the screens show for `C[C@@H]1CCCCO[C@H](CN(C)C(=O)Nc2ccc3c(c2)OCO3)[C@H](C)CN([C@@H](C)CO)C(=O)c2cc(NC(=O)Nc3ccccc3)ccc2O1`?
UUG fidelity: 2; GSIS activator: 10

Results for COc1ccc(S(=O)(=O)N[C@H]2C=C[C@H](CC(=O)NCCc3ccccc3)O[C@@H]2CO)cc1 ?
UUG fidelity: -4; GSIS activator: -5

How did CO[C@@H]1CN(C)C(=O)c2ccc(NS(=O)(=O)c3ccccc3)cc2OC[C@H](C)N(Cc2ccccn2)C[C@H]1C do in these assays?
GSIS activator: -8

How did COc1ccc(C(=O)Nc2nc(C)c(C)s2)cc1OC do in these assays?
GSIS activator: 13; SR-BI uptake up: -79; SR-BI HDL uptake: 79*

How did CCOc1ncccc1C(=O)OCC(=O)NCCc1ccc(S(N)(=O)=O)cc1 do in these assays?
UUG fidelity: -12; GSIS activator: 40*; SR-BI uptake up: 7; SR-BI HDL uptake: -7

How did CCOc1ccc(CCNC(=O)COC(=O)c2cccnc2OCC)cc1OCC do in these assays?
GSIS activator: 61*; SR-BI uptake up: -32; SR-BI HDL uptake: 32

Results for CCOc1ccc(CCNC(=O)CCNC(=O)c2ccco2)cc1OCC ?
UUG fidelity: -1; GSIS activator: 92*; SR-BI uptake up: 0; SR-BI HDL uptake: 0

What do the screens show for `CCOc1ccc(CCNC(=O)COC(=O)c2ccccc2O)cc1OCC`?
UUG fidelity: 0; GSIS activator: 14; SR-BI uptake up: -11; SR-BI HDL uptake: 11

What do the screens show for `CCOc1ccc(CCNC(=O)COC(=O)c2nc3nc(C)cc(C)n3n2)cc1OCC`?
UUG fidelity: -11; GSIS activator: 45*; SR-BI uptake up: -20; SR-BI HDL uptake: 20

Results for COc1ccc(CCNC(=O)CCNC(=O)c2ccco2)cc1OC ?
UUG fidelity: -13; GSIS activator: 38; SR-BI uptake up: 21; SR-BI HDL uptake: -21

What do the screens show for `COc1ccc(CCNC(=O)COC(=O)COc2ccc(Cl)cc2)cc1OC`?
GSIS activator: 30; SR-BI uptake up: 14; SR-BI HDL uptake: -14

Results for CCOc1ccc(CCNC(=O)COC(=O)c2ccc(Br)o2)cc1OCC ?
UUG fidelity: -2; GSIS activator: 28; SR-BI uptake up: 4; SR-BI HDL uptake: -4

Results for CCOc1ccc(CCNC(=O)COC(=O)COc2ccc(Cl)cc2)cc1OCC ?
GSIS activator: 45*; SR-BI uptake up: 5; SR-BI HDL uptake: -5

What do the screens show for `CCOc1ccc(CCNC(=O)COC(=O)c2nccnc2N)cc1OCC`?
UUG fidelity: -12; GSIS activator: 51*; SR-BI uptake up: 3; SR-BI HDL uptake: -3

Results for CC(=O)N1[C@H](C(=O)Nc2ccccc2)[C@@H](CO)[C@@H]2Cn3c(ccc(C4=CCCCC4)c3=O)[C@@H]21 ?
UUG fidelity: 23; GSIS activator: 5

How did CO[C@H]1CN(C)C(=O)c2ccc(NC(=O)C3CCOCC3)cc2OC[C@@H](C)N(C(C)=O)C[C@H]1C do in these assays?
UUG fidelity: 22; GSIS activator: 18

Results for O=C(C[C@H]1C[C@H]2c3cc(NC(=O)Nc4ccccc4F)ccc3O[C@H]2[C@@H](CO)O1)NCC1CC1 ?
UUG fidelity: -5; GSIS activator: 22

What do the screens show for `CSc1ccc(C(=O)C2CCCN(C(=O)c3ccc4c(c3)no[n+]4[O-])C2)cc1` (stereo unspecified)?
UUG fidelity: -7; GSIS activator: 42*

What do the screens show for `Cc1ccc(C(=O)N2CCN3C(=O)c4ccccc4C23c2ccccc2)cc1` (stereo unspecified)?
GSIS activator: 42*; SR-BI uptake up: 25; SR-BI HDL uptake: -25

Results for O=C1c2ccccc2C2(c3ccccc3)N1CCN2C(=O)C(Cl)(Cl)Cl (stereo unspecified) ?
UUG fidelity: -15; GSIS activator: -57; SR-BI uptake up: 2; SR-BI HDL uptake: -2

Results for CO[C@H]1CN(C)C(=O)c2cc(NS(=O)(=O)c3ccccc3C)ccc2OC[C@H](C)NC[C@H]1C ?
UUG fidelity: -13; GSIS activator: 33

Results for Cc1cccc(S(=O)(=O)N(C)C[C@H]2OCc3cn(nn3)CCCC(=O)N([C@@H](C)CO)C[C@H]2C)c1 ?
UUG fidelity: 8; GSIS activator: 18
